The test addresses T1, recombinant His-tagged PKM2 (UniProt P14618).
T1 construct: Pyruvate kinase muscle type 2 (PKM2), recombinant protein from BioVision; No catalogue number is printed; also called Recombinant PKM2; source: bought: BioVision
The test can be described thus: co-IP; in vitro binding assay: recombinant PKM2 incubated with or without recombinant active AKT1, immunoprecipitated with anti-AKT antibody, western blot. Particulars: both partners purified. In general terms: Immunoblotting shows a protein as a band on a membrane.

B1: recombinant active AKT1 (enzyme, UniProt P31749 1-480, looked up)
chain: MSDVAIVKEGWLHKRGEYIKTWRPRYFLLKNDGTFIGYKERPQDVDQREAPLNNFSVAQCQLMKTERPRPNTFIIRCLQWTTVIERTFHVETPEEREEWTTAIQTVADGLKKQEEEEMDFRSGSPSDNSGAEEMEVSLAKPKHRVTMNEFEYLKLLGKGTFGKVILVKEKATGRYYAMKILKKEVIVAKDEVAHTLTENRVLQNSRHPFLTALKYSFQTHDRLCFVMEYANGGELFFHLSRERVFSEDRARFYGAEIVSALDYLHSEKNVVYRDLKLENLMLDKDGHIKITDFGLCKEGIKDGATMKTFCGTPEYLAPEVLEDNDYGRAVDWWGLGVVMYEMMCGRLPFYNQDHEKLFELILMEEIRFPRTLGPEAKSLLSGLLKKDPKQRLGGGSEDAKEIMQHRFFAGIVWQHVYEKKLSPPFKPQVTSETDTRYFDEEFTAQMITITPPDQDDSMECVDSERRPHFPQFSYSASGTA
notes: AKT1, active recombinant kinase; The catalogue number is printed for the in vitro kinase assay; source: bought: Millipore, 14-276
On to B1, for which the binding result was “binds”.

Source of the values: publication PMC5217008, “AKT-induced PKM2 phosphorylation signals for IGF-1-stimulated cancer cell growth” (Oncotarget, 2016).
